Binding of CDR-mutated scFvs to a peptide of the spike HR2 region

Data: MIT Lincoln Laboratory AlphaSeq set, Engelhart et al. 2022, doi:10.1038/s41597-022-01779-4, as distributed in FLAb.

Target: peptide PDVDLGDISGINAS, taken from heptad repeat 2 (HR2) of SARS-CoV-2 spike.

Parent: Ab-14, a human scFv built as VH, a 15-residue (Gly4Ser)3 linker, VL. Only the CDRs of the light chain vary.
VH: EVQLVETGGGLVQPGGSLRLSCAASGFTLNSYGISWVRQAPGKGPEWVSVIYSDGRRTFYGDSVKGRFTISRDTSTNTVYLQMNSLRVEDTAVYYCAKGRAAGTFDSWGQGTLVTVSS
VL: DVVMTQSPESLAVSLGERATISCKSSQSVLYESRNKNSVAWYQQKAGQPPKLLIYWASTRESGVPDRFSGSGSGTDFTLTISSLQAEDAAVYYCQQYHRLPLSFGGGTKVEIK

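The parent was found by panning a naive human phage display library on the peptide. Library AAYL50 holds single substitutions and randomly drawn double and triple substitutions in the CDRs. In AlphaSeq, yeast of one mating type display the scFv and yeast of the other type display the target. Pairs that bind mate more often; barcode pairs of the diploids are counted by sequencing. Read counts were normalised to the haploid input and turned into Kd by a linear fit to BCL2-family pairs of known affinity, for each replicate. There are three technical replicates.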

The parent's light chain CDRs are KSSQSVLYESRNKNSVA, WASTRES, QQYHRLPLS; each variant's own CDRs replace them letter for letter.
This list gathers variants with a substitution at L100 (VL, numbered from residue 1).
Scale: log10 of Kd in nM, estimated from mating counts; low values are strong binders.
Averages over replicates are reported, and they cover detected replicates only.
Where no diploid with the target was found in any replicate, the entry reads "no signal": below detection, most likely a poor binder, though not proof of it.

For KSSQSVLYESRNKNSVA | WPSTRES | QQYHRMPLR, the assay gave no signal (0 of 3 replicates). Variant KASQSVLYESRNKVSVA | WASTRES | QQYHRMPLS gave 3.13 (1 of 3 replicates). With KSSQSVSYESRGKNSVA | WASTRES | QQYHRFPLS the result was 0.91 (3 of 3 replicates). With KSSQSVLYESRHKNKVA | WASTRES | QQYHRSPLS the result was no signal (0 of 3 replicates). For KSSQSVLYESRNKNSVA | WASTRCS | KQYHRPPLS, the assay gave 4.99 (1 of 3 replicates). For KRSQSVLYESRNKNSVA | WASTRMS | QQYHRGPLS, the assay gave no signal (0 of 3 replicates). Variant KSSQSVLYENRNKNSVA | WASTRES | VQYHRSPLS showed 1.99 (3 of 3 replicates). Variant KPSQHVLYESRNKNSVA | WASTRES | QQYHRGPLS gave 2.92 (3 of 3 replicates).

For KSSQSVLYESRNKNSVA | WAWTRES | QQYHRGPRS, the assay gave 3.20 (1 of 3 replicates). With KSSQSVLYESRNKNSVG | WASTREI | QQYHRYPLS the result was no signal (0 of 3 replicates). Variant KSSQSVLYESRNKNSVA | WASDREF | QQYHRVPLS gave 2.74 (3 of 3 replicates). Variant KSSQSVLYESRNANSVA | WASTRES | QQRHRYPLS showed no signal (0 of 3 replicates). Variant KSSQSVLYEFRCKNSVA | WASTRES | QQYHRMPLS showed 4.49 (2 of 3 replicates). With KSSQSQLYESRNKNSVA | WASTRES | QQYHRYCLS the result was no signal (0 of 3 replicates). Variant NSSQSVLYESRNKNSSA | WASTRES | QQYHRQPLS gave no signal (0 of 3 replicates). Variant KSSQSVLCESRNKNSVA | WASTRES | NQYHRNPLS showed 3.38 (1 of 3 replicates).

With KSSQSVLYESRNKESVA | WASTRES | QQYHTCPLS the result was 0.98 (3 of 3 replicates). Variant KSSQSVLYESRNKNSVA | LKSTRES | QQYHRTPLS showed 2.79 (3 of 3 replicates). For KSSQSVLKESRNKNSVA | WASTREQ | QQYHRAPLS, the assay gave 1.52 (3 of 3 replicates). For KSSQPVLYESRNKNSVA | WASTRES | QQYHRKPLS, the assay gave 1.41 (3 of 3 replicates). Variant KSRQSVLYESRNKNSVA | WASTRES | QQYHRTPLS showed 1.03 (3 of 3 replicates). With KSSQSVLYESRNKNSVA | WASTRSS | CQYHREPLS the result was 1.97 (3 of 3 replicates). Variant KSSQSVLYESRNKNSVA | WASTMES | QQDHREPLS showed 4.78 (3 of 3 replicates). Variant KSSQSVLLESRNKNSHA | WASTRES | QQYHRRPLS gave no signal (0 of 3 replicates).

For KPSQSVLYEHRNKNSVA | WASTRES | QQYHRMPLS, the assay gave 3.73 (3 of 3 replicates). With KDSQSVLYESRNKNSVA | WASTRES | QQYHRESLS the result was no signal (0 of 3 replicates). For KSSQSVLYESRNKNSVI | WASTRES | QQYHRTPKS, the assay gave no signal (0 of 3 replicates). With KSSQSVIYESRNKNSVA | WASTYES | QQYHRIPLS the result was 4.62 (2 of 3 replicates). With KSSQSVLYESRNKNSHA | WASTRES | QQPHRKPLS the result was no signal (0 of 3 replicates). For KSSQSVLYESRNKNSVA | WASTRES | QQYYRVPLY, the assay gave 1.04 (3 of 3 replicates). Variant KSSQSVLYEHRNKNSVA | WASTRES | QQYGRDPLS gave 3.48 (3 of 3 replicates). Variant KSSQSVLYESRNKNSLM | WASTRES | QQYHRFPLS gave no signal (0 of 3 replicates).

For KSSQSVLYESRNKNFVA | WASTRES | QQYHRMPLS, the assay gave 3.05 (1 of 3 replicates). Variant SSSQSVLYESTNKNSVA | WASTRES | QQYHRSPLS showed 4.22 (2 of 3 replicates). With KSSQSVLYESRNKNSVA | WASIRES | QQYHRNPLS the result was no signal (0 of 3 replicates). With KSSQSVLYESRNKNSVA | WASTRED | QQYHRGPLN the result was no signal (0 of 3 replicates). Variant KSSQSVLYGSRNKNSVA | WASTRES | GQYHRHPLS showed 4.22 (1 of 3 replicates). For KTSQSVLYESRNKNSVA | WAITRES | QQYHRAPLS, the assay gave no signal (0 of 3 replicates). Variant LSSQSVLYESRNKNSVA | WASTRES | QQRHRCPLS gave 1.33 (3 of 3 replicates). Variant KSSQSVLYESRNKNSKA | WASTRES | QQYHRGDLS gave no signal (0 of 3 replicates).

With KSSQSVLYESRNKNSVA | WASTRES | QQYERGPLS the result was 3.96 (1 of 3 replicates). Variant KDSQSVLEESRNKNSVA | WASTRES | QQYHRRPLS gave 2.25 (3 of 3 replicates). Variant KSSSSVLYESRNKVSVA | WASTRES | QQYHRWPLS showed 5.71 (2 of 3 replicates). With KSSQSVLYESYNKNSVM | WASTRES | QQYHREPLS the result was no signal (0 of 3 replicates). Variant KSSQSVLKESRNKNSVA | WASTRES | QQYLRQPLS showed 3.87 (3 of 3 replicates). With KSLQSVLYESRNKNSVA | WASTRES | QQYHRIPLS the result was 2.27 (3 of 3 replicates).

Repeated from above, the 7 best binders with a signal in all replicates:

With KSSQSVSYESRGKNSVA | WASTRES | QQYHRFPLS the result was 0.91 (3 of 3 replicates).
With KSSQSVLYESRNKESVA | WASTRES | QQYHTCPLS the result was 0.98 (3 of 3 replicates).
With KSRQSVLYESRNKNSVA | WASTRES | QQYHRTPLS the result was 1.03 (3 of 3 replicates).
With KSSQSVLYESRNKNSVA | WASTRES | QQYYRVPLY the result was 1.04 (3 of 3 replicates).
With LSSQSVLYESRNKNSVA | WASTRES | QQRHRCPLS the result was 1.33 (3 of 3 replicates).
With KSSQPVLYESRNKNSVA | WASTRES | QQYHRKPLS the result was 1.41 (3 of 3 replicates).
With KSSQSVLKESRNKNSVA | WASTREQ | QQYHRAPLS the result was 1.52 (3 of 3 replicates).

Three control strains display no target. For library AAYL50, 18% of the pairings with them gave a signal, with a median of 4.19 and one signal in twenty below 2.99, so weak values seen in few replicates may be background.
In this assay the parent's reference entry averaged 0.65; its copy inside this library read 1.68.